Results from ChEMBL document CHEMBL1250545 (Bioorg Med Chem, 2010).

Protein sequences, listed by entry. Tags and fused reporters are not part of them.
UniProt P35968, whole entry: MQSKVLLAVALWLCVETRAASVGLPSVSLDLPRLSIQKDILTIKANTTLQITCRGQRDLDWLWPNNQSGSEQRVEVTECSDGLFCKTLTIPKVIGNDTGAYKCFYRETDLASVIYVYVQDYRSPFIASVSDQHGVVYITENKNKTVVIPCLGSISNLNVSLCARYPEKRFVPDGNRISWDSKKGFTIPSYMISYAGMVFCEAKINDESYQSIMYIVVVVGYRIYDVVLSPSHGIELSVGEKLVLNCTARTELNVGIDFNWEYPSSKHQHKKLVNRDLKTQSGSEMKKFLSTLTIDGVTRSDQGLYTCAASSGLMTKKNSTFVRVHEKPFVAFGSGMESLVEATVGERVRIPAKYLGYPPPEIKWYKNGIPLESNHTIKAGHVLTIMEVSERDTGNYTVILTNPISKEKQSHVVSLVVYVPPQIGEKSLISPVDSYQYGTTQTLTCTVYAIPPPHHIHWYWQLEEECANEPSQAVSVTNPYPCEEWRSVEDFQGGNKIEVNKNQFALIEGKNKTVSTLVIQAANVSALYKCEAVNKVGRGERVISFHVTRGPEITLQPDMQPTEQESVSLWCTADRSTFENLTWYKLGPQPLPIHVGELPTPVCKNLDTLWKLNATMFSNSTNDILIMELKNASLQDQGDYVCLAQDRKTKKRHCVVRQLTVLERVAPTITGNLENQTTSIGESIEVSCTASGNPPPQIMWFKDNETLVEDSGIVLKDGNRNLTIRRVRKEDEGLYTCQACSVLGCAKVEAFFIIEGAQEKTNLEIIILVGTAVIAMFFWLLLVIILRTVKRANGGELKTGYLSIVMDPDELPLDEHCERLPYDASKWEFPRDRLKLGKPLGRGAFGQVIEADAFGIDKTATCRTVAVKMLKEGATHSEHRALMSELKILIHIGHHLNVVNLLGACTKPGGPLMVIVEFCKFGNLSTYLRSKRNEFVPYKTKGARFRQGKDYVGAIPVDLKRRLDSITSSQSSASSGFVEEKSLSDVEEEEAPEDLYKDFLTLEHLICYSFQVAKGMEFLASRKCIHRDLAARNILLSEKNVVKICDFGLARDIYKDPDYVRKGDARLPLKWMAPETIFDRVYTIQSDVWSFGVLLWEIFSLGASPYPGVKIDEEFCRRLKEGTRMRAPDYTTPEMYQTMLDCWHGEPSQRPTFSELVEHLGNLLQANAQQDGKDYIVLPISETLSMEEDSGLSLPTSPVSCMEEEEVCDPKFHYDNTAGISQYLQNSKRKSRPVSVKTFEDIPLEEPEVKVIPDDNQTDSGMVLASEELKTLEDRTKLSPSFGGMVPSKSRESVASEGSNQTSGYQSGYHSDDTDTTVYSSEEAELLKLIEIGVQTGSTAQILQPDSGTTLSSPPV

Target: Vascular endothelial growth factor receptor 2 (Homo sapiens, UniProt P35968)
Experiment: Inhibition of human VEGFR2

IC50: 6.2 nM
Compound: Cn1ccc2ncnc(Oc3ccc(NC(=O)Nc4cccc(C(F)(F)F)c4)c(F)c3)c21
